Measurements as given in ChEMBL document CHEMBL3603811, “Design, chemical synthesis and biological evaluation of 3-spiromorpholinone/3-spirocarbamate androsterone derivatives as inhibitors of 17β-hydroxysteroid dehydrogenase type 3” (Bioorg Med Chem, 2015).

Biological target: T1, 17-beta-hydroxysteroid dehydrogenase type 3 (Rattus norvegicus) (UniProt O54939)
T1 sequence (whole entry): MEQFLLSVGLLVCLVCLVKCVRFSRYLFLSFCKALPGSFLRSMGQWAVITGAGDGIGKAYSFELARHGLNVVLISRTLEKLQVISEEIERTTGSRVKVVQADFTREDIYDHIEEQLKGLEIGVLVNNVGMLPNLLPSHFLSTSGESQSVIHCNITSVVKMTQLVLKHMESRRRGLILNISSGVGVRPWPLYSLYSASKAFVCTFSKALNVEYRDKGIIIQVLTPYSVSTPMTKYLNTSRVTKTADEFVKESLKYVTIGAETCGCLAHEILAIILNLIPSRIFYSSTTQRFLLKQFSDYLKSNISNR
Assay: Inhibition of 17beta-HSD3 in rat testes microsomes using [14C]-4-androstene-3,17-dione as substrate measured based on 18% of initial enzyme transformation at 1 uM after 2 hrs
Conditions: Testis
Summary of the method: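 Rat testis microsomes: homogenate in phosphate/sucrose/EDTA buffer pH 7.5 with protease inhibitors, spun 12,500g, then pellet from 100,000g, at 4 °C. Reaction 2 h at 37 °C in 50 mM sodium phosphate pH 7.4, 20% glycerol, 1 mM EDTA, with NADPH and [14C]-Δ4-dione (50 nM). Inhibitor in DMSO. [14C]-T and substrate identified against reference steroids and quantified. Percent transformation and percent inhibition calculated.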

C[C@@H]1CN(S(=O)(=O)c2ccccc2C(F)(F)F)[C@@H](C)CN1C[C@@]1(O)CC[C@@]2(C)[C@@H](CC[C@@H]3[C@@H]2CC[C@]2(C)C(=O)CC[C@@H]32)C1
inhibition: 92.1%
